The entries are a selection whose mix differs from that of the whole data set. Some salts or complexes appear as unconnected parts, following the source record. Calls of active or inactive are those of the source. The call rests on the fitted dose curve; in most records, active means well fitted curve in either direction with a large enough effect; inconclusive means small, poorly fitted or top-dose-only effect; inactive means flat fitted curve, though single readings scatter.
Test: Total Fluorescence Counterscreen for Inhibitors of the Interaction of Thyroid Hormone Receptor and Steroid Receptor Coregulator 2
Conditions: TRb/SRC2 Texas Red total fluorescence interference
[1] = at 106 µM (top of the series) unless noted
On the % scale 0 is the no-effect control and ±100 the full control effect.

CN(C)c1cccc(C(=O)NCC2(N3CCCCC3)CCCCC2)c1
fluorescence change, negative = quenching [1]: inactive: -1.51%

COc1ccc(CN(CCCl)CCCl)cc1Cl
fluorescence change, negative = quenching [1]: inactive: 2.88% [at 53 µM]

CC(C)c1ccc(NC2CCN(C(=O)OC(C)(C)C)CC2)cc1
fluorescence change, negative = quenching [1]: inactive: -8.62%

CCOP(=O)(Cl)Cl
fluorescence change, negative = quenching (at 106 µM (top of the series)): inactive: -1.95%
fluorescence change, negative = quenching (at 201 µM (top of the series)): inactive: -1.42%

COc1ccc2c(c1O)-c1c(O)c(OC)cc3c1[C@H](C2)[N+](C)(C)CC3.O=[N+]([O-])c1cc([N+](=O)[O-])c([O-])c([N+](=O)[O-])c1[O-]
fluorescence change, negative = quenching [1]: inactive: -2.55%

O=C(OC1CN2CCC1CC2)c1ccc([N+](=O)[O-])cc1 (centres undefined)
fluorescence change, negative = quenching [1]: inactive: -5.53%

CCCCOc1ccccc1C(=O)NCC1(N2CCOCC2)CCCCC1
fluorescence change, negative = quenching [1]: inactive: -5.26%

O=C(NCC1(N2CCCCC2)CCCCC1)c1cccc([N+](=O)[O-])c1
fluorescence change, negative = quenching [1]: inactive: 0.118%

CCOc1ccc(C(=O)NCC2(N3CCOCC3)CCCCC2)cc1
fluorescence change, negative = quenching [1]: inactive: 0.489%

N#CC1(Nc2ccccc2)CCN(CCc2ccccc2)CC1
fluorescence change, negative = quenching [1]: inactive: -0.798%

CCCOc1cccc(C(=O)NCC2(N3CCOCC3)CCCCC2)c1
fluorescence change, negative = quenching [1]: inactive: -32.4%

O=[N+]([O-])c1cc([N+](=O)[O-])c(NCC2CCS(=O)(=O)C2)c([N+](=O)[O-])c1 (centres undefined)
fluorescence change, negative = quenching [1]: inactive: -8.94%

CN1CCN(CCOC(=O)C(O)(c2ccccc2)c2ccccc2)CC1
fluorescence change, negative = quenching [1]: inactive: -0.752%

COc1ccc(NC2CCN(C(=O)OC(C)(C)C)CC2)cc1
fluorescence change, negative = quenching [1]: inactive: 0.0405%

O=C(NCC1(N2CCOCC2)CCCCC1)c1cc(=O)[nH]c2ccccc12
fluorescence change, negative = quenching [1]: inactive: 0.577%

CCOc1ccc(C)cc1CN(CCCl)CCCl
fluorescence change, negative = quenching [1]: inactive: 0.381%

COc1ccc(NC2CCN(CCc3ccccc3)CC2)c(OC)c1
fluorescence change, negative = quenching [1]: inactive: 1.5%

O=[N+]([O-])c1ccccc1[N+](=O)[O-]
fluorescence change, negative = quenching [1]: inactive: -1.72% [at 201 µM]

COc1ccccc1C(=O)NCC1(N2CCOCC2)CCCCC1
fluorescence change, negative = quenching [1]: inactive: 0.923%

Cc1ccc(OCC(C)C)c(CN(CCCl)CCCl)c1
fluorescence change, negative = quenching [1]: inactive: -1.15%

COc1ccc(C(=O)NCC2(N3CCCCC3)CCCCC2)c(OC)c1OC
fluorescence change, negative = quenching [1]: inactive: -7.43%

O=C(NCC1(N2CCOCC2)CCCCC1)c1cc2ccccc2o1
fluorescence change, negative = quenching [1]: inactive: -0.108%

CCOC(=O)N1CCC(Nc2ccc(OC)cc2)CC1
fluorescence change, negative = quenching [1]: inactive: 0.36%

N#CC1(Nc2ccccc2)CCN(Cc2ccccc2)CC1
fluorescence change, negative = quenching [1]: inactive: -2.2%

O=C(OC1CN2CCC1CC2)C1c2ccccc2Oc2ccccc21 (centres undefined)
fluorescence change, negative = quenching [1]: inactive: -7.21%

CCOc1ncccc1C(=O)NCC1(N2CCOCC2)CCCCC1
fluorescence change, negative = quenching [1]: inactive: 0.533%

CC(C)(C)OC(=O)N1CCC(Nc2ccccc2)CC1
fluorescence change, negative = quenching [1]: inactive: -0.383%

CCC(CO)(C(=O)OC1CN2CCC1CC2)c1ccccc1 (centres undefined)
fluorescence change, negative = quenching [1]: inactive: -1.13%

COc1cc(C(=O)NCC2(N3CCOCC3)CCCCC2)cc(OC)c1OC
fluorescence change, negative = quenching [1]: inactive: -1.28%

COc1cc(OC)cc(C(=O)NCC2(N3CCOCC3)CCCCC2)c1
fluorescence change, negative = quenching [1]: inactive: 3.36%

CCCOc1ccc(C)cc1CN(CCCl)CCCl
fluorescence change, negative = quenching [1]: inactive: 0.412%

CN(C)C1(CNC(=O)c2ccc(C(C)(C)C)cc2)CCCCC1
fluorescence change, negative = quenching [1]: inactive: -0.539%

Fc1ccccc1NC1CCN(Cc2ccccc2)CC1
fluorescence change, negative = quenching [1]: inactive: -2.44%

CCN1CCC(Nc2cccc(F)c2)CC1
fluorescence change, negative = quenching [1]: inactive: -4.46%

CN(C)c1ccc(C(=O)NCC2(N3CCCCC3)CCCCC2)cc1
fluorescence change, negative = quenching [1]: inactive: -0.297%

CC(C)(C)c1ccc(C(=O)NCC2(N3CCOCC3)CCCCC2)cc1
fluorescence change, negative = quenching [1]: inactive: 3.77%

Cc1ccccc1C(=O)NCC1(N(C)C)CCCCC1
fluorescence change, negative = quenching [1]: inactive: -9.91%

O=C(NCC1(N2CCOCC2)CCCCC1)c1ccc([N+](=O)[O-])cc1
fluorescence change, negative = quenching [1]: inactive: -10.4%

N#Cc1ccc(C(=O)NCC2(N3CCCCC3)CCCCC2)cc1
fluorescence change, negative = quenching [1]: inactive: -0.151%

O=C(NCC1(N2CCOCC2)CCCCC1)c1ccccc1[N+](=O)[O-]
fluorescence change, negative = quenching [1]: inactive: 3.06%

CCOC(=O)C(CC)C1=NC(C)(C)Cc2ccccc21.O=[N+]([O-])c1cc([N+](=O)[O-])c(O)c([N+](=O)[O-])c1 (centres undefined)
fluorescence change, negative = quenching [1]: inactive: 0.0345%

O=C(NCC1(N2CCOCC2)CCCCC1)c1ccccc1
fluorescence change, negative = quenching [1]: inactive: -2.86%

c1ccc(CN2CCC(Nc3ccccc3)CC2)cc1
fluorescence change, negative = quenching [1]: inactive: -4.38%

ClCCOP(OCCCl)OCCCl
fluorescence change, negative = quenching [1]: inactive: -0.728%

COc1ccc(C(=O)NCC2(N3CCOCC3)CCCCC2)cc1OC
fluorescence change, negative = quenching [1]: inactive: -0.0519%

N/C(=N\O)c1c(N)no[n+]1[O-]
fluorescence change, negative = quenching [1]: inactive: -0.549%

O=C(O)c1cccc(Nc2c([N+](=O)[O-])cc([N+](=O)[O-])cc2[N+](=O)[O-])c1
fluorescence change, negative = quenching [1]: inactive: -2.96%

O=C(OC1CN2CCC1CC2)C1c2ccccc2C=Cc2ccccc21 (centres undefined)
fluorescence change, negative = quenching [1]: inactive: 0.0786%
